## Apparent affinities of Ab-95 variants for a coronavirus HR2 peptide

From the AlphaSeq antibody data of Engelhart et al. 2022 (doi:10.1038/s41597-022-01779-4), copy in the FLAb collection.

Target: peptide PDVDLGDISGINAS, taken from heptad repeat 2 (HR2) of SARS-CoV-2 spike.

Ab-95 is the parent antibody, in scFv form: VH, then a (GGGGS)3 linker, then VL. The heavy chain is unchanged in all variants.
VH: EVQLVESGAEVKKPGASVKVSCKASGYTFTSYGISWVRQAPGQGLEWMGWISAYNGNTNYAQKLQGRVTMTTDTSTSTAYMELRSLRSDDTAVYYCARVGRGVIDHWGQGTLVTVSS
VL: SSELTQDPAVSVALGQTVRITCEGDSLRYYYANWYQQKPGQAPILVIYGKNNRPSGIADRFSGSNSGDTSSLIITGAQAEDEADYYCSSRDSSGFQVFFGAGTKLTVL

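The starting antibody came from a phage panning campaign against this peptide. Variants in AAYL52 differ from the parent at up to three CDR positions; double and triple changes were sampled at random. The assay is AlphaSeq: two haploid yeast populations carry antibody and antigen on their surface. Mating (16 h, 30 °C) was followed by selection of diploids and sequencing of their barcodes. A regression on co-assayed BCL2-family reference pairs converts the normalised counts of each replicate to an apparent Kd. Mating was done three times.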

Variants are written as CDR1, CDR2 and CDR3 of the light chain (limits as in the source). Parent: EGDSLRYYYAN, GKNNRPS, SSRDSSGFQVF.
Every variant below is changed at G24 of the VL (sequential numbering).
Each Kd is an estimate from the mating assay, the geometric mean of the replicates in which the pair was seen; lower is stronger.
An entry "not detected" has no value in the source: the pair was not observed among the diploids in any replicate. This suggests poor binding but is not conclusive.
Order: sorted from the lowest average up, undetected variants last.
Three control strains display no target. For library AAYL52, 28% of the pairings with them gave a signal, with a median of 8.2 µM and one signal in twenty below 800 nM, so weak values seen in few replicates may be background. The control count says in how many pairings with the empty strains this scFv gave a signal.

CDR-L1,CDR-L2,CDR-L3,apparent Kd,seen in,signal with controls
EDYALRYYYAN,GKNNRPS,SSRDSSGFQVF,77 nM,3/3,5/9
EVDSTRYYYAN,GKNNRPS,SARDSSGFQVF,79 nM,3/3,3/9
EHDSLRYYDAN,GCNNRPS,SSRDSSGFQVF,130 nM,3/3,2/9
ESDSLRYPYSN,GKNNRPS,SSRDSSGFQVF,260 nM,3/3,2/9
EADILRYYYNN,GKNNRPS,SSRDSSGFQVF,380 nM,3/3,3/9
EDDSLRPYYAN,GKNNRPS,SSRDVSGFQVF,600 nM,1/3,1/9
EKDSLRYYGQN,GKNNRPS,SSRDSSGFQVF,700 nM,3/3,2/9
EIDSLRYYYAN,GKNNRPS,SSRDSSGFQVF,730 nM,3/3,3/9
ESDSLRYYYAN,GKNNRPS,SSCDSSGFQVA,740 nM,2/3,1/9
EKDGLQYYYAN,GKNNRPS,SSRDSSGFQVF,750 nM,2/3,1/9
EWDSLRYYYAN,GKNNRPS,MSRDSSGDQVF,890 nM,1/3,2/9
ECDSLRYYGAN,GKNNRPS,SSRDSSPFQVF,960 nM,3/3,5/9
EHDSLTYYYAN,GKNNRPS,SSRDSSGFQVH,1.2 µM,3/3,4/9
ELDSLRYKYAN,GKNNRPS,SSRDSSIFQVF,1.4 µM,1/3,2/9
DQDSLRYYLAN,GKNNRPS,SSRDSSGFQVF,1.5 µM,1/3,1/9
EIDSRRYYYAN,GKNNRPS,SSRDSSGFQVV,1.7 µM,3/3,1/9
ESDSLRYYRAN,GKNNRPS,SSRDSSGFFVF,2.0 µM,2/3,4/9
ENDSLRYYYMN,GKNNRLS,SSRDSSGFQVF,2.0 µM,1/3,1/9
ENDSLRYYKAK,GKNNRPS,SSRDSSGFQVF,2.2 µM,1/3,0/9
ERDSLRYYYAN,GKNNRPS,SSRDSSDFQVR,2.5 µM,1/3,4/9
EIDSLRYYYAN,GKNNRPS,ASRDSSGFQVM,2.6 µM,2/3,1/9
MADSLRYYYAN,GKNNRPS,YSRDSSGFQVF,2.6 µM,2/3,1/9
EVDELRYYYAN,GKNNRPS,SSRDSSGCQVF,2.7 µM,1/3,2/9
ELDSLRYYYAN,GKNNRPS,SSRDSSGFQVF,3.0 µM,2/3,3/9
ECKSLRYYYAN,GKNNRPS,SSRKSSGFQVF,3.6 µM,3/3,3/9
EKDSLRYYYAN,GKNERYS,SSRDSSGFQVF,3.8 µM,1/3,2/9
VDDSLRYYYSN,GKNNRPS,SSRDSSGFQVF,4.1 µM,2/3,3/9
EAISLRYYYAN,GKNNRPQ,SSRDSSGFQVF,4.1 µM,2/3,4/9
EYDSLRYYYAN,GKNNRPS,SSRSSSRFQVF,4.7 µM,1/3,1/9
EVDSLRYYQAN,GKNNRPS,SSRDSSMFQVF,4.9 µM,3/3,6/9
NIDSLRYYYAN,GKNNRPS,SSRDWSGFQVF,5.0 µM,2/3,3/9
EQDSLRYYYAN,GKNNRPS,SSRDSSSFQVD,6.7 µM,1/3,1/9
EIDSLRYYYAN,GKNWRPS,SSCDSSGFQVF,8.5 µM,3/3,2/9
EVDSLRYYYHN,GKNNRPS,SSRESSGFQVF,8.8 µM,2/3,3/9
EKDSLRYYYAN,GKNNRPS,SSRSSSGFQVF,9.0 µM,2/3,0/9
EEYSLAYYYAN,GKNNRPS,SSRDSSGFQVF,10 µM,1/3,2/9
ENDSLRYYYAN,GKNNRPS,SSRDSNGFQVF,10 µM,2/3,3/9
EPDSLRYYYAN,GKNNRPS,SSRDSVKFQVF,11 µM,3/3,3/9
EKDSLRYYYAN,GKNNRPS,SSHDSHGFQVF,11 µM,1/3,6/9
ECDSLRLYYEN,GKNNRPS,SSRDSSGFQVF,12 µM,2/3,3/9
ESDSRRYYYAN,GKNNRPS,SSRDSSGFQVF,15 µM,1/3,2/9
ECDSLRYQYAE,GKNNRPS,SSRDSSGFQVF,15 µM,3/3,6/9
EQDSLRYYYGN,GKNNRAS,SSRDSSGFQVF,18 µM,1/3,1/9
ETDSLRYYYAN,GKNNRPS,SSTDSSGFQVS,19 µM,3/3,6/9
EIDSLPYYYAN,GKNNAPS,SSRDSSGFQVF,23 µM,1/3,3/9
EQDSCRYYYAN,GKNNRKS,SSRDSSGFQVF,26 µM,1/3,0/9
EYDCLRYYYAN,GKCNRPS,SSRDSSGFQVF,26 µM,2/3,5/9
EVDSLRYYYAN,GKNNRPS,YSQDSSGFQVF,35 µM,1/3,2/9
NCDSLRYYYAN,GKQNRPS,SSRDSSGFQVF,46 µM,2/3,4/9
EVDSLRYYYAN,GYNNRPS,SSRDSSGFQVF,49 µM,2/3,2/9
ERDSLRYYYAN,GKNNRWS,SCRDSSGFQVF,81 µM,2/3,1/9
EPDSLRYYYAN,GKNNRFS,SSRDSSGFQVF,81 µM,2/3,2/9
EVDSLRYYYAN,VKNNNPS,SSRDSSGFQVF,83 µM,2/3,4/9
ERDSLRYYYAN,GKNNRPS,SSADSSGFQVF,98 µM,1/3,3/9
EPDSGRYYYAN,GKNNRPS,SSRDSKGFQVF,570 µM,1/3,1/9
EEDSLRYYYAW,GKNNRPS,SSRDSSGFQVF,not detected,0/3,1/9
ETDSLRYYYAN,GINNRPS,SSCDSSGFQVF,not detected,0/3,2/9
EPDSLRYYYAN,GKNNRPS,SSRDSIGFQVD,not detected,0/3,0/9
EADVLTYYYAN,GKNNRPS,SSRDSSGFQVF,not detected,0/3,0/9
ENPSLRYYYAG,GKNNRPS,SSRDSSGFQVF,not detected,0/3,3/9
EMDSLRYYYAN,MKNNRPS,SSRDSSGFEVF,not detected,0/3,3/9
ERDSLRYYYAN,GKNNRVS,SSMDSSGFQVF,not detected,0/3,3/9
EEDSLRYYYAN,GKNNRPS,EYRDSSGFQVF,not detected,0/3,3/9
EKDSLSYYYAN,GVNNRPS,SSRDSSGFQVF,not detected,0/3,3/9
ETDSWAYYYAN,GKNNRPS,SSRDSSGFQVF,not detected,0/3,0/9
EFDSLRYYYAN,GKNNRPS,SSRDFSGFQYF,not detected,0/3,0/9
ENDSQRYYYAN,GKNNRPS,SSRDFSGFQVF,not detected,0/3,0/9
ERDSLRYYYYN,GKNNRPS,SSNDSSGFQVF,not detected,0/3,3/9

The first 9 entries again:

CDR-L1	CDR-L2	CDR-L3	apparent Kd	seen in	signal with controls
EDYALRYYYAN	GKNNRPS	SSRDSSGFQVF	77 nM	3/3	5/9
EVDSTRYYYAN	GKNNRPS	SARDSSGFQVF	79 nM	3/3	3/9
EHDSLRYYDAN	GCNNRPS	SSRDSSGFQVF	130 nM	3/3	2/9
ESDSLRYPYSN	GKNNRPS	SSRDSSGFQVF	260 nM	3/3	2/9
EADILRYYYNN	GKNNRPS	SSRDSSGFQVF	380 nM	3/3	3/9
EDDSLRPYYAN	GKNNRPS	SSRDVSGFQVF	600 nM	1/3	1/9
EKDSLRYYGQN	GKNNRPS	SSRDSSGFQVF	700 nM	3/3	2/9
EIDSLRYYYAN	GKNNRPS	SSRDSSGFQVF	730 nM	3/3	3/9
ESDSLRYYYAN	GKNNRPS	SSCDSSGFQVA	740 nM	2/3	1/9